Here are results for one compound from patent US6514942B1, “Methods and compositions for stimulating T-lymphocytes” (The Board of Regents, The University of Texas System, priority 1995, dated 2003).

Marks after values point to notes of the source that are not given here.

The test system of the assay is CTL-16. Nature of the assay: Recognition of HER-2 peptides by ovarian tumor associated CTL (lysis of peptide-sensitized targets). Format: cell-based, human.

With `CC[C@H](C)[C@H](NC(=O)[C@@H](N)CCCCN)C(=O)N[C@@H](Cc1ccccc1)C(=O)NCC(=O)N[C@@H](CO)C(=O)N[C@@H](CC(C)C)C(=O)N[C@@H](C)C(=O)N[C@@H](Cc1ccccc1)C(=O)N[C@@H](CC(C)C)C(=O)O` [Peptide E75], the “% of C85 (target lysis by CTL in the presence of peptide as % of positive control C85)” value is recorded as >10.00^c % of C85.
